The results in this text go back to article PMC8522752 (Antimicrobial Agents and Chemotherapy, 2021).

The conditions of this data set: male, human, pbmc.

By half-life is commonly meant the time needed for the level to fall by half in the phase considered. In turn, `C[C@@]1(F)[C@H](O)[C@@H](COP(=O)(O)OP(=O)(O)OP(=O)(O)O)O[C@H]1n1cnc2c(=O)[nH]c(N)nc21` [AT-9010] gave a half-life at 10 μM of 22 h.
